According to patent US20120014911A1, “Regulators of the Interferon-Alpha Receptor 1 (IFNAR1) Chain of the Interferon Receptor” (priority 2009, published 2012):

Test system: IFNAR1
Experiment: Cycloheximide chase of IFNAR1 degradation
Type: cell-based, human
Details: U3A cells, VEGF
Experimental: Immunoprecipitation and immunoblotting procedures are described elsewhere (Fuchs et al, 1999, Oncogene 18:2039-2046). Protein degradation was carried out by cycloheximide (CHX, used at 20 μg/ml) chase. IFNAR1 internalization assay was carried out using the Fluorescence-based assay as described elsewhere (Kumar et al., 2007, J Cell Biol 179:935-950). BAY 43-9006 was obtained as a gift. Recombinant human IFN-a2 (Roferon) was purchased from Roche. Other reagents or inhibitors were purchased from commercial vendors.
Antibodies against Flag, GST and j3-actin (Sigma), HA (12CA, Roche), CK1α, PICD1/2 (PKCμ), PKD3 (PKCν), Tyk2, intracellular domain of hIFNAR1 and PKR, (Santa Cruz), anti-pan-phospho-tyrosine (4G10), phospho-Stat1 and Stat1 (Cell signaling), phospho-S710 of PKD2 (Biosource), PKD2 (Bethyl Laboratories), mIFNAR1 (Leinco) and ubiquitin (FK2, Biomol) were purchased. AA3, GB8 and EAl2 antibodies which recognize endogenous IFNAR1 (Goldman et al., 1999) and antibodies against IFNAR1 phosphorylated on Ser535 (pS535; (Kumar et al., 2004, J Biol Chem 279:46614-46620)) were described previously. Secondary antibodies conjugated to horseradish peroxidase were purchased from Chemicon and LI-COR. […] Immunoblot detection and quantification were carried out using the LI-COR's Odyssey Infrared Imaging System.

Substance: VEGF
- proteolytic turnover of Flag-IFNAR1: accelerated
